# Read-outs that look alike come from different tables or passages of the source.
# Target: T1, CYP1B1 enzyme (Homo sapiens, UniProt Q16678)
# T1 construct: expressed in transfected cells; host or cells: Saccharomyces cerevisiae W303-1A derived strains yRD+ (+CPR) and yRD-::Bax (-CPR)
# T1 sequence (Q16678 1-543): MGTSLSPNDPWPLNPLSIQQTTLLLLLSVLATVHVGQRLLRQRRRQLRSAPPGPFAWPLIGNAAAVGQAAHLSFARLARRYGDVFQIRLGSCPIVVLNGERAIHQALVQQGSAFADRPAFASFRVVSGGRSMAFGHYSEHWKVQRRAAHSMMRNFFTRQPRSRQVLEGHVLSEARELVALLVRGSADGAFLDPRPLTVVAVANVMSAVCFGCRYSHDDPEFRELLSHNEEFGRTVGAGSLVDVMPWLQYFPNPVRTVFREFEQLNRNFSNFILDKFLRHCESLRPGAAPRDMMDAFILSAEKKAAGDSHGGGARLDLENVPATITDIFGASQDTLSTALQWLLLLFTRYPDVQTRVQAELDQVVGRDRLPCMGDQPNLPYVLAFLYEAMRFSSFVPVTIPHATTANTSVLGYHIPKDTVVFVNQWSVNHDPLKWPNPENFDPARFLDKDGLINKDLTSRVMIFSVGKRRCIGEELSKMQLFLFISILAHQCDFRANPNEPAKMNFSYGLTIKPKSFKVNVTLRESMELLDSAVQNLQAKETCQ
# Assay: Live-cell IC50 determination, CYP1B1 expressed in yeast cells, 7-ethoxyresorufin (7-ER) substrate
# Type: cell-based
# Conditions: 1 × 10^7 cells, 10 min incubation
# Protocol: The IC50 values were calculated using GraphPad Prism software.
compound,measurement,setting,value
"O=c1cc(-c2ccccc2)oc2c1ccc1ccccc12 [ANF, Alpha-naphthoflavone]",IC50,"live yeast strain yRD+ (+CPR), read-out: IC50 for inhibition of CYP1B1 in yRD+ cells",7.5 nM
same,IC50,"live yeast strain yRD−:: Bax (–CPR), read-out: IC50 for inhibition of CYP1B1 in yRD- cells",7.9 nM
